In patent publication US9968583B2, “Method of manufacture of liposome composition” (EISAI R & D MANAGEMENT CO., LTD., priority 2009, dated 2018):

Experiment: Measurement of the entrapment ratio (ultracentrifugation, HPLC of active compound in the filtrate)
Format: physicochemical
Details: E7107, internal phase 250 mM HP-β-cyclodextrin/100 mM citric acid (pH=5.5)
Description: The entrapment ratio was determined as described below.
The entrapment ratio was calculated using the formula below.

Measured: Entrapment ratio (%)

CCC(O)C(C)C1OC1CC(C)(O)/C=C/C=C(\C)C1OC(=O)CC(O)CCC(C)(O)C(OC(=O)N2CCN(C3CCCCCC3)CC2)/C=C/C1C (stereo not drawn) [E7107, (8E,12E,14E)-7-{(4-cycloheptylpiperazin-1-yl)carbonyl}oxy-3,6,16,21-tetrahydroxy-6,10,12,16,20-pentamethyl-18,19-epoxytricosa-8,12,14-trien-11-olide]
99.4%: 40° C., 1 hour | 50° C., 5 minutes | 60° C., 5 minutes
